For 29 molecules, IkBa stabilization activation results are on record in PubChem BioAssay AID445 (National Center for Advancing Translational Sciences (NCATS), 2006).

The other results are listed elsewhere or left out. Inconclusive results are not listed. The source made the active and inactive calls. Calls come from the whole dose curve; as a rule, active = well fitted curve in the direction sought with a large enough effect in the signal ratio (not every such curve was filed as active); inconclusive = small, poorly fitted or top-dose-only effect, or a change in a side signal; inactive = flat fitted curve, though single readings scatter; the % refers to the signal ratio.

A short description of this assay: IkB Signaling.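 Note: 0% = basal untreated cells and 100% = reference inhibitor full response.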 Particulars: ABC-DLBCL IkBa-CBG/CBR dual luciferase ratio (green luciferase fused to IkBa over red control in OCI-Ly3 lymphoma cells), 4 h, scaled: untreated 0%, proteasome inhibitor 100%; at 57.1 µM (top of the series) unless noted. From the text:
NIH Molecular Libraries Screening Centers Network [MLSCN]
NIH Chemical Genomics Center [NCGC]
Nuclear factor kappa-B (NF-kappa-B) plays an important role in normal B cell development and survival. Diffuse large B cell lymphoma (DLBCL) is the most commonly observed type of non-Hodgkin's lymphoma. Gene expression analysis has identified an activated B cell-like subtype of DLBCL (ABC-DLBCL) which expresses known NF-kappa-B target genes. […] However, targets upstream of IKK have been largely unexplored and so nodes upstream of IKK in the NF-kappa-B pathway remain untested due to the lack of chemical probes.
A cell-sensor assay for I-kappa-B-alpha stabilization was developed with NIH investigator Dr. R. Eric Davis in Dr. Louis M. Staudt's laboratory. The assay uses green (CBG68) and red (CBR) emitting beetle luciferases [Chroma-Glo(TM) developed by Promega Corp.] where the green luciferase is fused to I-kappa-B-alpha and the red luciferase is present in its native state. Both luciferase genes are stably present in the OCI-Ly3 human ABC DLBCL cell line, but their expression is under the control of tetracycline-inducible promoters. Following the addition of doxycycline to induce expression of the luciferases, the green luminescence in control cultures rises only slowly because the CBG fusion partner I-kappa-B-alpha is targeted by IKK activity for rapid degradation. In contrast, green luminescence rises rapidly in the presence of proteasome inhibitors or IKK inhibitors. The rise in red luminescence of CBR is not affected by proteasome or IKK inhibitors, and serves as normalization for cell number and nonspecific effects. Compounds were screened as a concentration-titration series that ranged from 57 uM to 0.7 nM.
NCGC Assay Protocol Summary:
Cells were seeded in 1536-well plates at 5000 cells/3ul in IMDM medium containing 0.5% FBS, w/o phenol red, L-glutamine, 25 mM HEPES, 3 mg/ml sodium bicarbonate. After centrifugation for 1 min. at 1000 rpm, 23 nl of compounds or DMSO were delivered to each well using a pin tool. Then 1ul 80ng/ml doxycycline was dispensed into white solid 1536-well plates and the plates were incubated at 37C/5% C02 in a cell incubator for 4 hrs. Then 4 ul Chroma-Glo luminescent substrate mix (Promega) was added to each well. The plate was incubated at R.T. for 10-15 min. The plates were measured on a ViewLux plate reader for green luminescence (540/20 nm filter) and red luminescence (618/8 nm filter). The green and red luminescent signals were corrected for red and green luminescence filter overlap using previously determined filter calibration constants (determined using the procedure outlined in the Promega Technical Manual). The %Activity was determined from the ratio of corrected green/red luminescent values. Green luminescent and ratio %Activity was determined by normalizing to the difference in signal between basal cells (0% Activity) and cells incubated with 10 uM of the proteasome inhibitor MG-132 (100% Activity). Red luminescent %Activity was normalized to the difference between red luminesence in basal cells (0%Activity) and zero luminescence (-100% Activity).
Concentration-response curves were fitted to the signals arising from the green luminescence (I-kappa-B-alpha-luciferase fusion; IkB-luc) and the red luminescence (unfused luciferase; luc) as well as the calculated ratio. The concentration-effect curves were then classified based on curve quality (r2), response magnitude and degree of measured activity. Compounds were then categorized based on their concentration-response curves for all three datasets (Ikb-luc, luc and ratio).
Keywords: IKK, I-kappa-B, IkB, IkBa, cytotoxicity, luminescence, MLSMR, MLSCN, NIH Roadmap, qHTS, NCGC
With `Cc1ccc(NP(C)(=O)Oc2ccccc2)c(C)c1` (centres undefined), the IkBa stabilization activation is inactive: -2%.
For `COc1ccccc1OP(C)(=O)Nc1ccc(C)cc1` (centres undefined), the IkBa stabilization activation was inactive: 1.12%.
Then `O=[N+]([O-])[O-].[NH4+]`, with inactive: -0.555%.
As for `CCOP(C)(=S)SCC(=O)NC(C)C(=O)O` (centres undefined), the IkBa stabilization activation was inactive: -0.576%.
Regarding `CP(=O)(NC(=O)Nc1ccccc1)Oc1ccccc1` (centres undefined), the IkBa stabilization activation was inactive: 3.61%.
On to `CP(=S)(Nn1cnnc1)Oc1ccccc1` (centres undefined), for which the IkBa stabilization activation is inactive: -1.29%.
With `N1=C(c2nnc(-c3nn[nH]n3)nn2)NNN1`, the IkBa stabilization activation was inactive: -0.807% [at 11.4 µM].
Then `Cc1nc2ccc3ccccc3c2s1.O=[N+]([O-])c1cc([N+](=O)[O-])c(O)c([N+](=O)[O-])c1`, with inactive: -0.887%; and `Cc1ccc(C)c(NP(C)(=O)Oc2ccccc2)c1` (centres undefined), with inactive: 1.16%; and `Cc1ccc([N+](=O)[O-])cc1[N+](=O)[O-]`, with inactive: 0.733%.
Then `O=[N+]([O-])c1cccc([N+](=O)[O-])c1`, with inactive: 0.0875%.
Then `Cc1cccc([N+](=O)[O-])c1[N+](=O)[O-]`, with inactive: 7.12%; and `CCC(C)(OO)OOC(C)(CC)OO` (centres undefined), with inactive: -1.55%; and `CP(=O)(Nc1ccccc1F)Oc1ccccc1` (centres undefined), with inactive: 0.573%.
As for `CP(=O)(Nc1ccc2c(c1)OCCO2)Oc1ccccc1` (centres undefined), the IkBa stabilization activation was inactive: 2.16%.
As to `NNC(NN)NN.n1nc(-c2nn[nH]n2)n[nH]1`, the IkBa stabilization activation is inactive: 1.95% [at 11.4 µM].
With `[NH4+].[O-][Cl+3]([O-])([O-])[O-]`, the IkBa stabilization activation was inactive: 1.19%.
Consider `Cc1ccccc1NP(C)(=O)Nc1ccccc1C`, for which the IkBa stabilization activation was inactive: -1.62%.
With `CCOP(=O)(CC)OCC`, the IkBa stabilization activation was inactive: -0.985%.
To `CCOP(C)(=S)SCC(=O)NC(C)(CC)C(=O)O` (centres undefined) belongs inactive: -0.883%; to `Cc1ccc([N+](=O)[O-])c([N+](=O)[O-])c1`, inactive: 7.38%; to `Cc1c([N+](=O)[O-])cccc1[N+](=O)[O-]`, inactive: 2.38%.
To `CN(C)CCOC(=O)C(O)(c1ccccc1)C1CCCCC1` (centres undefined) belongs inactive: 0.313%; to `C/C1=C2N=C(/C=C3N=C(/C(C)=C4\[N-][C@@](C)([C@H]5N=C1[C@@](C)(CCC(=O)NC[C@H](C)OP(=O)([O-])O[C@@H]1[C@H](O)[C@H](n6cnc7cc(C)c(C)cc76)O[C@@H]1CO)[C@@H]5CC(N)=O)[C@](C)(CC(N)=O)[C@H]4CCC(N)=O)[C@@](C)(CC(N)=O)[C@@H]\3CCC(N)=O)C(C)(C)[C@@H]/2CCC(N)=O.[C-]#N.[Co+3]`, inactive: 0.509% [at 25.6 µM]; to `N#[O+].[C-]#N.[C-]#N.[C-]#N.[C-]#N.[C-]#N.[Fe+2].[Na+].[Na+]`, inactive: 4.89%.
To `CP(=O)(Oc1ccccc1)N1CCOC1=O` (centres undefined) belongs inactive: -1.09%; to `COc1ccccc1OP(C)(=O)Nc1c(C)n(C)n(-c2ccccc2)c1=O` (centres undefined), inactive: 1.49%.
For the molecule `CP(=O)(Nc1ccccn1)Oc1ccccc1` (centres undefined), the IkBa stabilization activation was inactive: -1.1%.
Then `COc1ccccc1OP(C)(=O)Nc1ccc(C)c(C)c1` (centres undefined), with inactive: 0.248%.
